Results as given in patent US12522635B2, “Amyloid peptide variants” (Loyola Marymount University, priority 2019, dated 2026).

Molecular target: T1, human IAPP (hIAPP) (Homo sapiens, UniProt P10997)
T1 construct: This 37 amino acid polypeptide is co-secreted from pancreatic β-islet cells with insulin
T1 sequence (P10997 34-70 limits assumed): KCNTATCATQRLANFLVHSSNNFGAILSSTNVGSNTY
Assay: Thioflavin T binding assay of hIAPP aggregation when mixed with IAPP peptides
Type: biochemical
Conditions: peptide mixed with hIAPP; no single assay (thioflavin T and AFM)
Text: Any of a number of assays known to the art can be used to evaluate the ability of IAPP peptides to inhibit hIAPP aggregation and/or protect cells from hIAPP toxicity. Thioflavin T (ThT) binding is one such technique for identifying amyloid formation in real time. Human IAPP is known to bind thioflavin T during aggregation and amyloid formation, and upon binding to amyloid fibrils ThT will give a strong fluorescence signal at approximately 482 nm when excited at 450 nm. ThT fluorescence correlates linearly with amyloid concentration in a sample and therefore can be used to determine the amount of aggregation in a sample. […] Determining the extent of aggregation can also be determined using other techniques, such as Atomic Force Microscopy (AFM), which can provide information about particle dimensions, shape, and substructure with nanometer resolution. In the foregoing assays and others that can be used by one of skill in the art, significant inhibition can be determined using a t-test by measuring the difference between hIAPP and hIAPP combined with an IAPP peptide. […]
37 μM human IAPP was mixed with 75 μM of each indicated animal IAPP. […] Thioflavin T fluorescence emission was then recorded at 488 nm using a Hitachi F-7000 fluorescence spectrophotometer. […]

Compound: CC[C@H](C)[C@H](NC(=O)[C@H](C)NC(=O)CNC(=O)[C@H](CC(C)C)NC(=O)[C@H](CC(N)=O)NC(=O)[C@H](CC(N)=O)NC(=O)[C@H](CO)NC(=O)[C@H](CO)NC(=O)[C@H](CCCNC(=N)N)NC(=O)[C@@H](NC(=O)[C@H](CC(C)C)NC(=O)[C@H](Cc1ccccc1)NC(=O)[C@H](CC(N)=O)NC(=O)[C@H](C)NC(=O)[C@H](CC(C)C)NC(=O)[C@H](CCCNC(=N)N)NC(=O)[C@H](CCC(N)=O)NC(=O)[C@@H](NC(=O)[C@H](C)NC(=O)[C@@H]1CSSC[C@H](NC(=O)[C@@H](N)CCCCN)C(=O)N[C@@H](CC(N)=O)C(=O)N[C@@H]([C@@H](C)O)C(=O)N[C@@H](C)C(=O)N[C@@H]([C@@H](C)O)C(=O)N1)[C@@H](C)O)C(C)C)C(=O)N[C@@H](CC(C)C)C(=O)N[C@@H](CO)C(=O)N1CCC[C@H]1C(=O)N[C@H](C(=O)N[C@@H](CC(N)=O)C(=O)N[C@H](C(=O)NCC(=O)N[C@@H](CO)C(=O)N[C@@H](CC(N)=O)C(=O)N[C@H](C(=O)N[C@@H](Cc1ccc(O)cc1)C(N)=O)[C@@H](C)O)C(C)C)[C@@H](C)O [seal IAPP]
- inhibition of hIAPP aggregation (summary statement): able to inhibit such aggregation
